# Molecular target: kappa opioid receptor (Homo sapiens, UniProt P41145)
# By UniProt entry, the sequences of proteins in these tests, tags left out. Where a name states a change or a piece, a line headed by the entry shows the natural chain unless it says otherwise.
# UniProt P41145: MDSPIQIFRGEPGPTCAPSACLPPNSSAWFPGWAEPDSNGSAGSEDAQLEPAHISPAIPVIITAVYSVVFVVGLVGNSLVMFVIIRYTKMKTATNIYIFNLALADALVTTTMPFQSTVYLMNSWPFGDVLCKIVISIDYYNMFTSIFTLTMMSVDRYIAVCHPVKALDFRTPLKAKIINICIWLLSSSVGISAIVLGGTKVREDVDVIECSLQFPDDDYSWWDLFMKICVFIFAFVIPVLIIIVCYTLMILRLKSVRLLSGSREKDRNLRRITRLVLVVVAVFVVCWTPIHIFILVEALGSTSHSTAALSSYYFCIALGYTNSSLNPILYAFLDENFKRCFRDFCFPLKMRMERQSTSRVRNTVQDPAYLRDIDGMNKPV
# Type: biochemical
# Set-up: purchased Millipore (Billerica, Mass.); host or cells: Chem-5 mammalian cell line
structure (smiles),measurement,value
COC(=O)[C@@H]1C[C@H](OC(C)=O)C(=O)[C@H]2[C@@]1(C)CC[C@H]1C(=O)O[C@H](c3ccoc3)C[C@]21C [salvinorin A],G protein activation in the presence of kappa receptor,concentration dependently activate the G protein

# Source: patent publication US9956187B2 (priority 2014, dated 2018)
